# Target: T1, Aminopeptidase N (Plasmodium falciparum FcB1/Columbia) (UniProt O96935)
# T1 sequence (whole entry): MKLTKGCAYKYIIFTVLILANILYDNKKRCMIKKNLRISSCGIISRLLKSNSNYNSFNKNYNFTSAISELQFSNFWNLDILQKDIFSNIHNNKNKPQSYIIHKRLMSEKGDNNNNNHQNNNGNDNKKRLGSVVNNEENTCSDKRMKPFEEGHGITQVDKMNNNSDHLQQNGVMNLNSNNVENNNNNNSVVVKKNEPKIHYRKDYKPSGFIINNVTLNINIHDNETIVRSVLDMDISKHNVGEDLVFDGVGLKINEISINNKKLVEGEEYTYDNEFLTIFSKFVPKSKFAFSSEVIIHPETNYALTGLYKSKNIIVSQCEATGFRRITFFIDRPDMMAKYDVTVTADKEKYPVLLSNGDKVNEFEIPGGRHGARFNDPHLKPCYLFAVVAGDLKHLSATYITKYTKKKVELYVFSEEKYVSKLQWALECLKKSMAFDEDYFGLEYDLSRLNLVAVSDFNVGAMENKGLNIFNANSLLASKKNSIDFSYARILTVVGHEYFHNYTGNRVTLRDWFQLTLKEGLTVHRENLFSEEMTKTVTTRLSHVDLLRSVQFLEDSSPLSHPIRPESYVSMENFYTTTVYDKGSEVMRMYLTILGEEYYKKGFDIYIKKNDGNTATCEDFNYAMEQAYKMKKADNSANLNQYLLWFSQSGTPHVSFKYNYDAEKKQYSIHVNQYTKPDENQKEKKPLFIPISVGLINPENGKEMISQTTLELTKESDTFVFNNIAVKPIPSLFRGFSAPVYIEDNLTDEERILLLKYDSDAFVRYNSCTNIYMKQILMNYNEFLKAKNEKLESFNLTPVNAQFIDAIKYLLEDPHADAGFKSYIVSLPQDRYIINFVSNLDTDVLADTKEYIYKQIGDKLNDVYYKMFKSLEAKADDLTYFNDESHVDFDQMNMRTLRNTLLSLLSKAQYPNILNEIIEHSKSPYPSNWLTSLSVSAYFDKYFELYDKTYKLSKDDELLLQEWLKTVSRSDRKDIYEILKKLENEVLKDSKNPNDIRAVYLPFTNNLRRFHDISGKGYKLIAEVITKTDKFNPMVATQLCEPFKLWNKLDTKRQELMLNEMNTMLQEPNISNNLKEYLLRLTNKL
# Assay: Ratio of Ki for bestastin to compound for Plasmodium falciparum M1-aminopeptidase
row,Ratio Ki,Structure (SMILES)
1,5,COc1ccc(C[C@@H](N)[C@H](O)C(=O)N[C@@H](CC(C)C)C(=O)O)cc1
2,5,CC(C)C[C@H](NC(=O)[C@@H](O)[C@H](N)Cc1ccc(OCc2ccccc2)cc1)C(=O)O
